From ChEMBL document CHEMBL5042519, “Design and synthesis of marine sesterterpene analogues as novel estrogen receptor α degraders for breast cancer treatment” (Eur J Med Chem, 2022)

Chains of the proteins cited; added tags and fusions are not shown.
UniProt P03372, whole entry: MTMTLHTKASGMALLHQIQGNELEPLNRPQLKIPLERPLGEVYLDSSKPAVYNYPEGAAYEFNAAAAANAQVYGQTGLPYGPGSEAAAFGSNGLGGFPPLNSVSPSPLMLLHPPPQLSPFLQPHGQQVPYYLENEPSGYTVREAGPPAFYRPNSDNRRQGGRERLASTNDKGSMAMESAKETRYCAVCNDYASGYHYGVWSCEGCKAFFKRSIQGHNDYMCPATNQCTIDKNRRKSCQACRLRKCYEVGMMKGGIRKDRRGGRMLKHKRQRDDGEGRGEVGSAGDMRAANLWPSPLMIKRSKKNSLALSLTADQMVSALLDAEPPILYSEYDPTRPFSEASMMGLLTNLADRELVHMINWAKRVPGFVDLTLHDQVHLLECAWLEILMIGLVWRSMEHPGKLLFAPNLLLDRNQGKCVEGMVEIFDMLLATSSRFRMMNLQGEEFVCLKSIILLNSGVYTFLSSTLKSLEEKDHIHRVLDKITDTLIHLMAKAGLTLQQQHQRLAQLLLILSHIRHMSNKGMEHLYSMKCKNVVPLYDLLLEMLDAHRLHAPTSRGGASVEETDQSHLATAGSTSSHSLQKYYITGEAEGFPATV

target: Estrogen receptor (Homo sapiens) (UniProt P03372); test: Relative Binding affinity to human ERalpha by competitive fluorometric binding assay relative to estradiol

RBA | Structure (SMILES)
1.72% | CCCCCCOC(=O)/C=C\C=C/[C@H](C)[C@H]1CC[C@]2(C)C[C@@H]3C(C)=CC(=O)[C@H]3/C(C=O)=C\C[C@@H]12
0.22% | CC(C)=C/C=C\[C@H](C)[C@H]1CC[C@]2(C)C[C@@H]3C(C)=CC(=O)[C@H]3/C(C=O)=C\C[C@@H]12

Structure (SMILES) | RBA
CC1=CC(=O)[C@H]2/C(C=O)=C\C[C@H]3[C@@H]([C@@H](C)/C=C\C=C/C(=O)OCCOCCOCCOC(=O)CC45CC6CC(CC(C6)C4)C5)CC[C@]3(C)C[C@H]12 | 0.59%
